The values below are quoted from earlier work in patent US20060089824A1, “Methods and systems for drug screening and computational modeling” (priority 2002, published 2006).

For this data set the following is noted: reasonable value, therapeutic level; from Tran et al. 2000; cited from earlier work.

For the molecule `Cc1cc2c(s1)Nc1ccccc1N=C2N1CCN(C)CC1` [olanzapine], the “free concentration of olanzapine (corrected for binding to plasma proteins)” value is reported as 27 nM.
